{"sequences": {"note": "By UniProt entry, the sequences of proteins in these tests, tags left out. Where a name states a change or a piece, a line headed by the entry shows the natural chain unless it says otherwise.", "UniProt Q07817, whole entry": "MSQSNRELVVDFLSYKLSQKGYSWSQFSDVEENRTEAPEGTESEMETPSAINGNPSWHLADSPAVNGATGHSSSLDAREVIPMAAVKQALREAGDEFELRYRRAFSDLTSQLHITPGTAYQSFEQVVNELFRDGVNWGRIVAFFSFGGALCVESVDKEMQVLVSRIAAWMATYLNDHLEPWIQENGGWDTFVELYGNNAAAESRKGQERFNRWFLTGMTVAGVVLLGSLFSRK", "UniProt Q16611": "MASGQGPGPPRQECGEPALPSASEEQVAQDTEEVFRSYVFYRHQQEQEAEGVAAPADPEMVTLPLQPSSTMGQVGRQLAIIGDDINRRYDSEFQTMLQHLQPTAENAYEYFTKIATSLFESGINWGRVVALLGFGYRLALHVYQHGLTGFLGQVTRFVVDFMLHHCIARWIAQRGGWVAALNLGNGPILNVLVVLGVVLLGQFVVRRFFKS"}, "source": "paper PMC2913173", "origin": "cited, not measured here", "key": {"Bcl-xL (Homo sapiens) [1]": {"biological_target": "Bcl-xL (Homo sapiens) (UniProt Q07817)"}, "Bcl-xL (Homo sapiens) [2]": {"biological_target": "Bcl-xL (Homo sapiens) (UniProt Q07817)", "remark": "listed apart in the source"}}, "note": "pKd: −log10 of the molar value. Where two headings read alike, the source gives them in different places.", "data": [{"substance": "Bak 72-87 (from UniProt Q16611)", "values": [{"measurement": "pKd", "setting": "Bcl-xL (Homo sapiens) [1]", "value": 6.32}, {"measurement": "pKd", "setting": "Bcl-xL (Homo sapiens) [2]", "value": 6.47}]}]}
